Measured values reported in patent US20220241229A1, “Methods and Compositions for Altering Senescence Associated Secretory Phenotype” (BUCK INSTITUTE FOR RESEARCH ON AGING, priority 2019, published 2022).
Like-named read-outs stand apart in the source and are kept apart here.

Experiments:
C57BL6/J mice [1] = conditions: for Age (days) at 50% mortality / Age (days) at 90% mortality: 2% w/w AKG diet from 18 months of age; for Survival (survival curves vs. control): pooled female and male, two independent cohorts of aged mice, 2% CaAKG (w/w) diet from 18 months, P=0.032, P=0.022
Excerpt: The principle endpoint of health span and lifespan study was natural death or mice found dead at daily inspection or age at euthanasia (for mice deemed unlikely to survive for next 48 hr and are in enormous discomfort). The criteria for euthanasia were based on an independent assessment by a veterinarian, according to AAALAC guidelines and only where the condition of the animal was considered. Severe lethargy, rapid weight loss (over two weeks>20%), severe distended abdomen and body condition score with signs of pain (grimace), inability to move despite the stimuli, severe ulcer or bleeding tumor, sever temperature loss with abnormal breathing rate. Animal found dead or euthanized was necropsied for pathology score. No invasive measurements were performed on this population, n=180 animals (two cohorts of 90 animals). A sacrificed group were purchased at 14 months of age, baselined and grouped the following week. […] Animals were sacrificed and tissues were collected after 3 months of treatment. Food intake and body weight were measured on a biweekly and bimonthly basis for the duration of the study.
(§1) Python Software was used to extract all the health span data and create files compatible with R software for analysis. Data were analyzed using R, GraphPad Prism 7 and OASIS 2 software. Log-rank (Mantel-Cox) tests were used to analyze Kaplan-Meier curves, and a fisher's exact test was performed for maximum lifespan analysis (at 90% survival). […] Two-way analysis of variance (ANOVA) with Bonferroni post hoc correction was used for analysis between morbidity curves. The area under curve (AUC) of […] graphs were measured baselining at 18 months of age. The changes in AUC were used to calculate the percent compression of morbidity.

C57BL6/J mice [2] = conditions: for Age-dependent hair graying (fur color index): female mice, after 9 months of treatment; for Reduction of area under the frailty curve (proportion of life frail): frailty scores vs. percentage of lifespan, P<0.01
Excerpt: For the subjective properties of the assessments, all measurements were completely blinded. These assessments indicate age-associated deterioration of health and include evaluation of the animal musculoskeletal system, the vestibulocochlear/auditory systems, the ocular and nasal systems, the digestive system, the urogenital system, the respiratory system, signs of discomfort, body weight and body surface temperature. 0 is assigned if no sign of frailty is observed and the animal is healthy for that phenotype. A moderate phenotype and a severe phenotype is scored 0.5 and 1 respectively. Loss of temperature and weight were scored using standard deviation for the study (Table 2). All the phenotypes were scored as described before by Whitehead, J. C., et al., except for temperature and weight. Temperature and weights scoring: Briefly, for weight and temperature, the new scaling scores were used; Average and standard deviations (STDEV) were calculated sex specifically using our own baseline data sets (data collected before the start of the treatment mice at 18th month age). A decrease in temperature or weight (FIG. 3B, and FIG. 3D) within one STDEV is scored as a (0), a decrease bigger than one STDEV but smaller than 2 STDEV will be scored as a (0.5) and any decrease more than 2 STDEV is scored as a (1).
as §1
In order to assess healthspan, measurements were applied that are based on a clinically relevant frailty index. The frailty index (FI) consists of 31 phenotypes that are indicators of age-associated health deterioration, with each phenotype scored on a 0, 0.5 or 1 scale, based on its severity. Body weight and surface temperature were collected and converted to the same scoring scales (Table 2). All scorings were conducted in a blinded manner.
The 31-metrics share many characteristics of the human frailty indices and has been reported to progress similarly with aging in mice and humans. Measurements were repeated approximately every eight weeks, providing us with eight and seven sets of data respectively for male and female groups. To establish a baseline clinical assessment, a dataset was collected right before the start of the treatment at 18th months (FIG. 4A-FIG. 4D).
Since the age for onset of age-related phenotypes can be quite heterogeneous in mammals, frailty datasets were plotted not only as a function of chronological time, but also in proportion to the lifespan of each mouse by binning scores within ten percentile (e.g. scores collected between 60% and 70% of the animals' lifespans were binned and plotted at 65%), (FIG. 9A-FIG. 9B). This further aligns assessments with respect to the biologic age of the animal.

C57BL6/J mice [3] = conditions: Cohort-2; median life (28 months old)
Procedure: Metabolism was measured applying indirect calorimetry. Promethion metabolic cage system-Sable Systems International was used. The system is equipped with GA-3 small mammal gas analyzers for measurements of O2 (consumption) and CO2 (production). Energy expenditure, food intake, water consumption, body weight, physical activity and volunteer exercise were simultaneously recorded over 4 consecutive days (96 hours). Mice were housed individually in metabolic cages and accustomed to their environment a day before the start of recording. Data were analyzed using Sable System Expedata-P Data Analysis Software. Subsequently, CalR software, a free web tool was used for analysis of experiments using indirect calorimetry, to analyze the raw data, generate some plots and run statistical analysis.

senescent markers = conditions: tissues of old mice (sacrificed group); trends toward reduced levels in some tissues
heart and motor function = conditions: aged mice, male and female
[4] = female, Cohort-1, AKG vs. control
[5] = female, Cohort-2, AKG vs. control
[6] = male, Cohort-1, AKG vs. control
[7] = male, Cohort-2, AKG vs. control

Compound: O=C(O)CCC(=O)C(=O)O [AKG, 2-oxopentanedioic acid]
- Age (days) at 50% mortality (C57BL6/J mice [1]; female, Cohort-1): 932 days
- Age (days) at 90% mortality (C57BL6/J mice [1]; female, Cohort-1): 1109 days
- Percentage survival increase from birth, age at 50% mortality (C57BL6/J mice [1]; [4]): 6.3%
- Percentage survival increase from birth, age at 90% mortality (C57BL6/J mice [1]; [4]): 9%
- Percentage survival increase from birth, age at 100% (C57BL6/J mice [1]; [4]): 10%
- Percentage survival increase from inception of study, age at 50% mortality (C57BL6/J mice [1]; [4]): 16.6%
- Percentage survival increase from inception of study, age at 90% mortality (C57BL6/J mice [1]; [4]): 19.7%
- Percentage survival increase from inception of study, age at 100% (C57BL6/J mice [1]; [4]): 21%
- Age (days) at 50% mortality (C57BL6/J mice [1]; female, Cohort-2): 902 days
- Percentage survival increase from birth, age at 50% mortality (C57BL6/J mice [1]; [5]): 3.7%
- Percentage survival increase from inception of study, age at 50% mortality (C57BL6/J mice [1]; [5]): 9.6%
- Percentage survival increase from inception of study (AKG vs. Cntrl), age at 50% mortality (C57BL6/J mice [1]; male & female, Cohort-1): 9.7%
- Percentage survival increase from inception of study (AKG vs. Cntrl), age at 90% mortality (C57BL6/J mice [1]; male & female, Cohort-1): 20.2%
- Percentage survival increase from inception of study (AKG vs. Cntrl), age at 100% (C57BL6/J mice [1]; male & female, Cohort-1): 14.2%
- Percentage survival increase in survival from birth (AKG vs. Cntrl), age at 50% mortality (C57BL6/J mice [1]; male & female, Cohort-1): 4.1%
- Percentage survival increase in survival from birth (AKG vs. Cntrl), age at 90% mortality (C57BL6/J mice [1]; male & female, Cohort-1): 9.5%
- Percentage survival increase in survival from birth (AKG vs. Cntrl), age at 100% (C57BL6/J mice [1]; male & female, Cohort-1): 7.2%
- Age (days) at 50% mortality (C57BL6/J mice [1]; male & female, Cohort-1): 977 days
- Age (days) at 90% mortality (C57BL6/J mice [1]; male & female, Cohort-1): 1116 days
- Percentage survival increase in survival from birth (AKG vs. Cntrl), age at 50% mortality (C57BL6/J mice [1]; male & female, Cohort-2): 3.7%
- Age (days) at 50% mortality (C57BL6/J mice [1]; male & female, Cohort-2): 870 days
- Age (days) at 50% mortality (C57BL6/J mice [1]; male, Cohort-1): 995 days
- Age (days) at 90% mortality (C57BL6/J mice [1]; male, Cohort-1): 1155 days
- Percentage survival inception of study, age at 50% mortality (C57BL6/J mice [1]; [6]): 9.6%
- Percentage survival inception of study, age at 90% mortality (C57BL6/J mice [1]; [6]): 16.4%
- Percentage survival inception of study, age at 100% (C57BL6/J mice [1]; [6]): 11.2%
- Percentage survival increase in survival from birth, age at 50% mortality (C57BL6/J mice [1]; [6]): 4.2%
- Percentage survival increase in survival from birth, age at 90% mortality (C57BL6/J mice [1]; [6]): 8%
- Percentage survival increase in survival from birth, age at 100% (C57BL6/J mice [1]; [6]): 6%
- Age (days) at 50% mortality (C57BL6/J mice [1]; male, Cohort-2): 870 days
- Percentage survival inception of study, age at 50% mortality (C57BL6/J mice [1]; [7]): 10.4%
- Percentage survival increase in survival from birth, age at 50% mortality (C57BL6/J mice [1]; [7]): 3.7%
- Survival (survival curves vs. control) (C57BL6/J mice [1]): extends lifespan and decreases mortality
- Age-dependent hair graying (fur color index) (C57BL6/J mice [2]; first cohort): reverses the hair discoloration
- Age-dependent hair graying (fur color index) (C57BL6/J mice [2]; second cohort): prevent the hair discoloration
- Reduction of area under the frailty curve (proportion of life frail) (C57BL6/J mice [2]; females): 52%
- Reduction of area under the frailty curve (proportion of life frail) (C57BL6/J mice [2]; males): 40%
- Locomotion activity in metabolic cages (C57BL6/J mice [3]): improves locomotion
- Senescent markers in tissues (qRT-PCR) (senescent markers): no significant changes

Compound: O=C([O-])CCC(=O)C(=O)[O-].[Ca+2] [CaAKG, Calcium alpha-ketoglutarate]
- Improved survival from inception of CaAKG feeding (C57BL6/J mice [1]; female mice, first cohort, P=0.02): 19.4%
- Percentage survival increase from inception of study, age at 50% mortality (C57BL6/J mice [1]; [5]): 9.6%
- Percentage survival increase from inception of study (AKG vs. Cntrl), age at 50% mortality (C57BL6/J mice [1]; male & female, Cohort-1): 9.7%
- Percentage survival increase from inception of study (AKG vs. Cntrl), age at 90% mortality (C57BL6/J mice [1]; male & female, Cohort-1): 20%
- Percentage survival inception of study, age at 50% mortality (C57BL6/J mice [1]; [7]): 10.4%
- Improved survival (extended) (C57BL6/J mice [1]; males, first cohort, not significant (P=0.18 and P=0.15)): 9.4%
- Survival (survival curves vs. control) (C57BL6/J mice [1]): increases survival
- Age-dependent hair graying (fur color index) (C57BL6/J mice [2]; first cohort): reverse age-dependent hair graying
- Age-dependent hair graying (fur color index) (C57BL6/J mice [2]; second cohort): only prevented the hair graying and no reversal effect was detected
- Locomotion activity in metabolic cages (C57BL6/J mice [3]): increased locomotion activity
- Heart and motor function (treadmill exhaustion test, heart echocardiography) (heart and motor function): No significant adverse changes
